Measured values published in PubChem BioAssay AID2517 (National Center for Advancing Translational Sciences (NCATS), 2012).
The entries are a selection whose mix differs from that of the whole data set. Records with an inconclusive call do not appear. Calls of active or inactive are those of the source. Calls come from the whole dose curve; as a rule, active = well fitted inhibition curve with a large enough effect; inconclusive = small, poorly fitted or top-dose-only effect; inactive = no such curve, though single readings can be large or run the other way.

The chains behind the UniProt entries cited, without tags or fusion partners.
UniProt P27695, whole entry, looked up: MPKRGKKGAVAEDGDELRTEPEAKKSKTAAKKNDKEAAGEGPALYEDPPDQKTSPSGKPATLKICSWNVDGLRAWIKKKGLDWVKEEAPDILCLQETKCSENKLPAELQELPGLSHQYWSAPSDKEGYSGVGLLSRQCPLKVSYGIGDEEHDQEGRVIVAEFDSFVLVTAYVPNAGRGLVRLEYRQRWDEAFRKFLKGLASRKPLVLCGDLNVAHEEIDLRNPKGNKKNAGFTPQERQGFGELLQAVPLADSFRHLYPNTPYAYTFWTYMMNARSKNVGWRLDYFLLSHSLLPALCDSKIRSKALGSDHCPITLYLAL

target: DNA repair nuclease/redox regulator APEX1 (Homo sapiens) (UniProt P27695); test: qHTS Assay for Inhibitors of the Human Apurinic/apyrimidinic Endonuclease 1 (APE1); settings: recombinant APE1, TAMRA/BHQ-2 abasic DNA cleavage fluorescence; series mostly up to 65.8 µM; activity change, negative = inhibition: at the top concentration; note: nearly all actives have a fitted effect of over 55% in size;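 for activity change, negative = inhibition: plate controls were vehicle for no effect and reference inhibitor for full effect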
Potency is the fitted concentration of half-maximal effect.

SMILES	activity change, negative = inhibition	Potency
CN(C(=O)Cc1ccc(Cl)c(Cl)c1)[C@H]1CC[C@@]2(CCCO2)C[C@@H]1N1CCCC1	inactive: 5.96%	–
O=[N+]([O-])c1ccc2c(c1)nnn2O	inactive: 13.4%	–
CN(C(=O)Cc1ccccc1)[C@@H]1CC[C@]2(CCCO2)C[C@H]1N1CCCC1	–	inactive
CCOP1(=S)c2c(C)nn(CCC#N)c2N=C(c2ccc(F)cc2)N1C (stereo not drawn)	inactive: -4.22%	–
N#CCCN(C(=O)COC(=O)C(O)(c1ccccc1)c1ccccc1)c1ccc(F)cc1	inactive: 10.8%	–
O=[N+]([O-])CC(O)c1ccc([N+](=O)[O-])cc1 (stereo not drawn)	inactive: 15.9%	–
O=C(O)COc1ccc([As](=O)(O)O)cc1[N+](=O)[O-]	inactive: 49.2%	–
Nc1ccccc1[As](=O)(O)c1ccccc1	inactive: -5.04%	–
CS(=O)(=O)c1cc([N+](=O)[O-])c2no[n+]([O-])c2c1	inactive: 9.58%	–
O=P(Nc1nccs1)(Oc1ccccc1)Oc1ccccc1	inactive: 9.65%	–
CCOP1(=S)c2c(C)nn(CCC#N)c2N=C(c2ccccc2F)N1C (stereo not drawn)	inactive: -0.324%	–
CCOP(=O)(Nc1cccc2ccccc12)OCC	inactive: -2.59%	–
COc1cc(C2NCCC3(OCCO3)C2(C)C)cc(OC)c1OC (stereo not drawn)	inactive: -3.24%	–
CCCOP(=S)(Nc1nc(N)cc(=O)[nH]1)OCCC	inactive: 11.9%	–
Cc1ccc(NCCc2c([N+](=O)[O-])cc([N+](=O)[O-])cc2[N+](=O)[O-])cc1	inactive: 2.48%	–
Nc1cccc2c([As](=O)(O)O)cccc12	inactive: -3.01%	–
O=[As](O)(c1cccc(O)c1)c1cccc(O)c1	inactive: -1.32%	–
Cc1cccc(OCC(=O)OC2CN3CCC2CC3)c1 (stereo not drawn)	inactive: 6.23%	–
CS(=O)(=O)c1ccc(Cl)c(NC(=O)COC(=O)C(O)(c2ccccc2)c2ccccc2)c1	inactive: 12.3%	–
COc1cc(C(=O)NCC2(N3CCOCC3)CCCCC2)cc(Cl)c1OC(C)C	inactive: 12.4%	–
CN(C(=O)Cc1ccc(Cl)c(Cl)c1)[C@@H]1CC[C@]2(CCCO2)C[C@H]1N1CCCC1	inactive: -2.91%	–
O=C(OC1CN2CCC1CC2)c1ccc(Cl)cc1 (stereo not drawn)	inactive: 11.2%	–
O=[As](O)(c1ccccc1Br)c1ccccc1Br	inactive: -0.931%	–

SMILES	activity change, negative = inhibition	Potency
CC(C)/C=N\N=C(\N)N[N+](=O)[O-]	inactive: -4.79%	–
COc1ccccc1CNC(=O)COC(=O)C(O)(c1ccccc1)c1ccccc1	inactive: 4.72%	–
CC(C)(C)C(=O)NC(Sc1ncccn1)C(Cl)(Cl)Cl (stereo not drawn)	inactive: -4.9%	–
Clc1n[nH]nc1-c1nn[nH][15n]1	inactive: 1.91%	–
CN(CCCl)Cc1cc(Cl)c(NC2=NCCN2)c(Cl)c1	–	inactive
CCOP(=O)(Nc1ccc(C)cn1)OCC	inactive: 0.379%	–
CCOP(=O)(NC(=NC(C)c1ccccc1)NC(C)c1ccccc1)OCC (stereo not drawn)	inactive: 23%	–
CCC1=CC2Cc3nc4ccc(Cl)cc4c(N)c3C(C1)C2 (stereo not drawn)	inactive: 29.8%	–
O=P1(Nc2ccccn2)COc2ccccc2OC1	inactive: -2.83%	–
NS(=O)(=O)c1cccc(NC(=O)COC(=O)C(O)(c2ccccc2)c2ccccc2)c1	inactive: -2.92%	–
O=P1(Nc2ccc(Br)cn2)COc2ccccc2OC1	inactive: -2.21%	–
Cc1ccc(OCC(=O)OC2CN3CCC2CC3)cc1 (stereo not drawn)	inactive: -0.725%	–
O=[As](O)(c1cccs1)c1cccs1	inactive: -9.34%	–
Nc1cccc([As](=O)(O)c2ccccc2)c1	inactive: -4%	–
O=P1(Nc2ncccn2)COc2ccccc2OC1	inactive: 1.85%	–
O=C(/C=C/c1ccccc1)OC1CN2CCC1CC2 (stereo not drawn)	inactive: 10.4%	–
CN(C)C1(CNC(=O)c2ccc(S(C)(=O)=O)cc2)CCCCC1	inactive: 0.0656%	–
Cc1ccc(C(=O)OC2CN3CCC2CC3)cc1 (stereo not drawn)	inactive: -15.7%	–
CC1CCC(C(C)C)C(OP(=O)(Nc2ccccn2)c2ccccc2)C1 (stereo not drawn)	inactive: -1.53%	–
Cc1nn(-c2ccccc2)c2c1P(=O)(N1CCOCC1)N(C)C(c1ccccc1)=N2 (stereo not drawn)	inactive: -2.13%	–
O=[N+]([O-])c1ccc(Nc2ccc(Oc3ccc([N+](=O)[O-])cc3[N+](=O)[O-])cc2)c([N+](=O)[O-])c1	inactive: -1.17%	–
CN(N=O)C(=N)N[N+](=O)[O-]	inactive: -3.19%	–
Cc1cc(SC(NC=O)C(Cl)(Cl)Cl)ncn1 (stereo not drawn)	inactive: 4.19%	–

SMILES	activity change, negative = inhibition	Potency
O=P(Nc1ccccn1)(c1cccc2ccccc12)c1cccc2ccccc12	inactive: 0.91%	–
CCOC(=O)Nc1cccc([As](=O)(O)O)c1	inactive: 0.0299%	–
Cc1cc(SC(NC(=O)c2ccccc2)C(Cl)(Cl)Cl)nc(C(C)C)n1 (stereo not drawn)	inactive: -0.127%	–
CCCCOc1ccc(C(=O)NCC2(N3CCCCC3)CCCCC2)cc1OC	inactive: 52.7%	–
CCOC(=O)Nc1ccc([As](=O)(O)O)c(O)c1	–	active: 224 nM
CCC(C)N(CC(C)C)C(=S)SC(NC(C)=O)C(Cl)(Cl)Cl (stereo not drawn)	inactive: 1.62%	–
CCOC(=O)c1ccc(NC(=O)C(C)(CCl)SC)cc1 (stereo not drawn)	inactive: 1.64%	–
O=C(OC1CN2CCC1CC2)c1cccc([N+](=O)[O-])c1 (stereo not drawn)	inactive: -3.36%	–
O=C(Nc1ccncc1[N+](=O)[O-])c1ccc([N+](=O)[O-])cc1[N+](=O)[O-]	inactive: 32.7%	–
O=C(COc1ccccc1)OC1CN2CCC1CC2 (stereo not drawn)	inactive: -3.65%	–
COP1(=S)c2c(C)nn(CCC#N)c2N=C(c2ccc(F)cc2)N1C (stereo not drawn)	inactive: -0.962%	–
COc1cc(I)ccc1[As](=O)(O)O	inactive: -2.63%	–
COc1ccc2nc(NP(=O)(c3ccccc3)c3ccccc3)sc2c1	inactive: -4.34%	–
Cc1cc(=O)[nH]c(N[N+](=O)[O-])n1	inactive: 2.32%	–
O=C(OC1CN2CCC1CC2)C12CC3CC(CC(C3)C1)C2 (stereo not drawn)	inactive: 9.47%	–
Cc1c2c(nc3ccccc13)SC(C(Cl)Cl)C2 (stereo not drawn)	inactive: 0.317%	–
CCN(CC)C(=S)SC(NC=O)C(Cl)(Cl)Cl (stereo not drawn)	inactive: 0.719%	–
CC(C)NC(=O)NP(=O)(Oc1ccccc1)Oc1ccccc1	inactive: 1.99%	–
CC(C)c1ccc(OP(=O)(Nc2ccccn2)Oc2ccccc2F)cc1 (stereo not drawn)	inactive: 0.652%	–
ClCCSc1nnc(-c2cccnc2)o1	inactive: 10.3%	–
Cc1ccc2nc3c(c(C)c2c1)CC(C(Cl)Cl)S3 (stereo not drawn)	inactive: 0.343%	–
Cc1ccc(OP(=O)(Nc2ccc([N+](=O)[O-])cn2)Oc2ccc(C)cc2)cc1	inactive: 59.8%	–
